Experiment in series [1]: not given
The source holds these as a separate data set.

Read-outs that look alike come from different tables or passages of the source.

In the case of 2S-alpha-tocopherol, the “mean 2S-alpha-tocopherol percentage (of total alpha-tocopherol), high vs low zeaxanthin group” value is “not significantly different” (frontal cortex (FC)); “not significantly different” (hippocampus (HPC)); “trend of less” (occipital cortex (OC), p=0.08). Further, the “mean 2S-alpha-tocopherol percentage (of total alpha-tocopherol), high vs low β-carotene group” value in series [1] (frontal cortex (FC)) is reported as “not significantly different”; in series [1] (hippocampus (HPC)), “not significantly different”; in series [1] (occipital cortex (OC), p<0.05), “significantly less”.

For the origin of these results see patent US9993457B2, “Method of improving visual processing, visual acuity, or both by administering compositions comprising RRR-alpha-tocopherol and carotenoid to infants” (ABBOTT LABORATORIES, priority 2014, dated 2018).
